In patent US7718768B2, “Biologically active peptide [sequence]” (CMS Peptides Patent Holding Company Limited, priority 2001, dated 2010):

Tests used:
[1] = test system: ascitic fluid type liver cancer H22; assay: survival of mice with transplanted ascitic fluid type liver cancer H22; assay type: in vivo, BALB/c mice; conditions: 3 × 10^5 IU/kg i.p. once per day
Protocol: Intraperitoneal injection, once per day. […] The cyclophosphamide groups were treated on the next day after transplanting the cancer cells. Treatment of all groups with testing substance lasted for 30 days or until the animal died unless otherwise specified.
Stock H22 cells were incubated in DMEM/F12 medium supplemented with 10% fetal bovine serum, 37° C./5% CO2 for 72 hrs, then washed 3-4 times with Hank's solution at room temperature. Adjust cell concentration to 1-2×10^9 per liter with Hank's solution. 0.2 ml of the cell suspension was implanted to the abdominal cavity of several BALB/c mice for 6-8 days. The mice were killed by cervical vertebra dislocation. Ascitic fluid of the mice was collected asceptically and the cell concentration adjusted to 1×10^6 per ml with Hank's solution. 0.2 ml of the cell suspension was implanted into the abdominal cavity of healthy mice to generate the H22 carrying mouse model for ascitic fluid type liver cancer. Administration of test substance started as described in section Method 1. Survival data of the mice was recorded. If the animal survived longer than the experiment, the survival days was recorded as the duration of the experiment. […] The survival index was calculated according to the following formula: Survival index(mean survival days in treatment group−mean survival days of control group)÷mean survival days of control group×100% 4. […]

NK cell = NK cell cytotoxicity activity test (YAC-1 target cells, MTT) on spleen cells of treated mice; assay type: in vivo, BALB/c mice; conditions: IFN-γ and IL-2 groups 3×10^5 IU/kg/day, X ± SD
Protocol: The above substances were all dissolved in 0.5 ml saline and injected intraperitoneal (i.p.) for 15 continuous days, once per day.
Ten mice per group. The day after the last test substance administration, the mice were sacrificed by cervical dislocation. The spleen was isolated aseptically and manually dispersed in cold D-Hank's solution using an injection needle. The dispersed cell suspension was further sieved through a 100 gauge 150 μm diameter stainless steel sieve. After centrifugation at 200 g for 10 minutes, the supernatant was discarded. The cell pellet was re-suspended in 10 volume of Tris-NH4Cl buffer and then kept standing still for 10 minutes at room temperature. The suspended cells were collected by centrifugation at 150 g for 10 minutes. The cells were washed 2-4 times with cold D-Hank's solution by re-suspending and collecting by centrifugation with condition as described above. The washed cells were then diluted to the desired cell densities by RPMI-1640 culture medium, containing 10% fetal bovine serum.
Mice spleen cells were prepared to 4×10^6/ml as described in section 1.1 above. Target cells YAC-1 were brought to log phase and adjusted to 1×10^5/ml. Using a 96 wells cell culture plate, 100 μl mouse spleen cells and 100 μl culture medium were added to the control well containing only the spleen cells; 100 μl target cells and 100 μl culture medium were added to the control well containing only target cells; 100 μl mouse spleen cells and 100 μl target cells were added to the NK activity assay well. Three parallel sets of the above were prepared per mouse.
Samples were centrifuged at 150 g for 10 minutes to collect the cells. The supernatant was discarded and 50 μl/well MTT of 1 mg/ml was added. The reaction mixture was then shaken for 2 minutes, and incubated at 37° C., 5% CO2 for 4 hours. The supernatant was discarded after centrifugation at 150 g for 10 minutes. 120 μl 40 mM HCl-2-propanol was added and shaken for 3 minutes. An ELISA reader was used to obtain OD570nm of each well referenced at 630 nm.

anti-SRBC antibody = assay: humoral immunity (SRBC hemolysis index) of mice bearing transplanted B16 melanoma; assay type: in vivo, C57BL/6 mice; design: key: index = (OD540 of test sample ÷ reference OD540) × 500; conditions: 3 × 10^5 IU/kg i.p. once per day
Protocol: Intraperitoneal injection, once per day. […] Treatment of all groups with testing substance lasted for 30 days or until the animal died unless otherwise specified.
Stock B16 mouse melanoma cells were incubated in DMEM/F12 medium supplemented with 10% fetal bovine serum, 37° C./5% CO2 for 72 hrs, then washed 3-4 times with Hank's solution. The cell concentration was adjusted to 1×10^5 per ml with Hank's solution and 0.1 ml of the cell suspension was injected via the tail vein into the testing mice to generate the B16 melanoma bearing animal model. Treatment with test substance started as described in section Method 1.
Sheep red blood cells (SRBC) were prepared by collecting blood from the cervical vein and put into a sterile flask with glass beads. The flask was shaken for 3 minutes and the blood then mixed with Alsever solution (glucose 2.05 g, NaCl 0.4 g, […] 0.8 g, adjust to 100 ml with distilled water) and stored at 4° C. Immediately before use, samples were centrifuged at 130 g, 5 minutes to collect the SRBC. The cells were washed two times by re-suspension and centrifugation in normal saline. […]
Reference OD540nm was obtained by mixing 0.25 ml SRBC suspension with Drabkin solution to 4 ml and placed at room temperature for 10 minutes before OD540nm was taken. […] The Pathological Changes were Recorded, and the Numbers of Melanoma Lung Metastasis Foci were Counted. […]

**Q.** “IL-2: recombinant human interleukin-2, Shanghai Huaxin Biotech Inc.; positive control immunostimulant” was tested. Which Survival days [1] did it give?
**A.** 13.6 ± 0.5 days

**Q.** What about the “NK cell cytotoxic activity (NK cell activity index)” value (NK cell; peptide 0.5 μg/kg/day i.p. 15 days) of the same substance?
**A.** 74 ± 10 %

**Q.** What about the “NK cell cytotoxic activity (NK cell activity index)” value (NK cell; peptide 5 μg/kg/day i.p. 15 days) of the same substance?
**A.** 80 ± 8 %

**Q.** And the “NK cell cytotoxic activity (NK cell activity index)” value (NK cell; peptide 50 μg/kg/day i.p. 15 days)?
**A.** 74 ± 8 %

**Q.** And the “NK cell cytotoxic activity (NK cell activity index)” value (NK cell; peptide 500 μg/kg/day i.p. 15 days)?
**A.** 77 ± 8 %

**Q.** What about the Hemolysis index (anti-SRBC antibody) of the same substance?
**A.** 49.3 ± 24.7
